The record followed here is US7498029B2, “Photoimmunotherapies for cancer using combination therapies” (The General Hospital Corporation, priority 2001, dated 2009).

Experiment [1] deals with EGFR-negative NR6 cells. The experiment is described as follows: Cellular uptake of PICs, NR6 cells. The class given is cell-based, mouse. The note with it: PICs with 4 BPD per antibody. As to the method:
Cellular uptake studies were conducted to evaluate targeting specificity of the PICs. Cells were plated in 2 ml of media in 35 mm tissue culture dishes at densities such that the cells reached ˜90% confluence at the end of a three-day growth period. Following an initial period of at least 14 to 20 hours, which allowed for cells to attach and begin dividing, incubation with PICs or free BPD was initiated by replacing the original 2 ml of media with 2 to 4 ml of media containing PIC or free BPD. From this point onward, cells were handled under low light conditions to avoid photosensitizing the cells or photobleaching the photosensitizer. […] Cell samples were then collected and analyzed. […] In order to quantitate the BPD content of the cell suspensions, the fluorescence emission intensities of the solubilized cell suspensions were compared to those of free BPD standards. Fluorescence measurements were performed as previously described. […] 0.5 ml of each solubilized cell sample was mixed with 2 ml of 1 M NaOH/1% SDS in a disposable fluorimeter cuvette to measure BPD content via fluorescence quantitation. […] The value of this parameter, which varied for the different cell lines, was measured in the following manner. First, 1 ml cell suspensions in culture medium, prepared from one set of control cell dishes, were counted using a hemacytometer. […]

Experiment [2] concerns CHO-EGF cells. The experiment is described as follows: PDT/PIT phototoxicity, MTT assay, CHO-EGF cells. Type of experiment: cell-based. The note with it: CHO-EGFR cells; red light. As to the method:
This light was focused to a spot of 3.5 cm diameter, which corresponded to a power density of circa 40 mW/cm^2.
To determine the survival fraction of cells after treatment, the 3-(4,5-dimethylthiazol-2-yl)-2,5-diphenyltetrazolium bromide (“MTT”) assay, which measured mitochondrial dehydrogenase activity, was used. Cells were incubated with 0.5 mg/ml MTT for 1 hour to measure its reduction by mitochondrial dehydrogenases.
Background: Tetrazolium assays rely on reduction of a dye to a coloured formazan, in cell work by metabolically active cells.

As for C225 PIC, in experiment [1], the “uptake by NR6 cells” value is “not by the EGFR-negative NR6 cells”. Further, in experiment [2], the “light dose for 50% decrease in viability” value is 6.5 J/cm^2.
